OPERA 2.9 data: melting point values

Values as listed in the OPERA 2.9 repository of K. Mansouri.

The melting point is given in degrees Celsius. "n/a" marks a cell with nothing listed here. "via" names the databases from which the curators took the value.

| structure (SMILES) | name | melting point (°C) | via |
|---|---|---|---|
| FC(F)(F)C(F)(F)C(F)(F)C(F)(F)C(F)(F)C(F)(F)CC[Si](Cl)(Cl)Cl | Trichloro((perfluorohexyl)ethyl)silane | -21 | eChemPortal |
| N#CCCNc1cccc(Cl)c1 | 3-(3-Chloroanilino)propanenitrile | 142 | OCHEM |
| O=C(O)COc1ccc(C(=O)c2ccccc2)cc1 | Acetic acid, (4-benzoylphenoxy)- | 154 | OCHEM |
| ClCc1nc(-c2cccc(Cl)c2)no1 | 5-(chloromethyl)-3-(3-chlorophenyl)-1,2,4-oxadiazole | 40 | OCHEM |
| Cc1cc(OCC(=O)O)ccc1Cl | Acetic acid, (4-chloro-3-methylphenoxy)- | 181 | OCHEM |
| COC(=O)C(=O)CC(=O)c1ccc(C)cc1 | methyl 4-(4-methylphenyl)-2,4-dioxobutanoate | 87 | OCHEM |
| CCOC(=O)Nc1cccc(C(=O)O)c1 | 3-[(ethoxycarbonyl)amino]benzoic acid | 197 | OCHEM |
| Cc1c(C(=O)O)oc2c(Cl)cccc12 | 7-chloro-3-methyl-benzofuran-2-carboxylic Acid | 230 | OCHEM |
| CCOc1ccc(Nc2n[nH]c(=S)s2)cc1 | 5-(4-Ethoxyanilino)-1,3,4-thiadiazole-2(3H)-thione | 171 | OCHEM |
| Cc1ccn2c(=O)c(C(=O)O)cnc2c1 | 8-methyl-4-oxo-4H-pyrido[1,2-a]pyrimidine-3-carboxylic acid | 242 | OCHEM |
| Cc1sc(N)nc1-c1ccc(F)cc1 | 4-(4-Fluorophenyl)-5-methyl-1,3-thiazol-2-amine | 123 | OCHEM |
| COc1ccc(-c2nn(-c3ccccc3)cc2C(=O)O)cc1 | 3-(4-Methoxyphenyl)-1-phenyl-1H-pyrazole-4-carboxylic acid | 245 | OCHEM |
| COc1ccc2oc(C)c(C(=O)O)c2c1 | 5-Methoxy-2-methyl-benzofuran-3-carboxylic acid | 210 | OCHEM |
| Cc1cc(N2CCOCC2)ccc1N | 2-Methyl-4-(morpholin-4-yl)aniline | 90 | OCHEM |
| COc1cc(-c2n[nH]c(=S)o2)cc(OC)c1OC | 5-(3,4,5-trimethoxyphenyl)-1,3,4-oxadiazole-2-thiol | 98 | OCHEM |
| O=C(O)CCc1nc2ccccc2[nH]c1=O | 3-Hydroxy-2-quinoxalinepropionic acid | 264 | OCHEM |
| Cc1ccc(NC(N)=S)cc1C | (3,4-dimethylphenyl)thiourea | 185 | OCHEM |
| Clc1ccc(-c2nn[nH]n2)cc1Cl | 5-(3,4-Dichlorophenyl)-1H-Tetrazole | 160.5 | OCHEM |
| NNc1cnccn1 | 2-hydrazinylpyrazine | 111 | OCHEM |
| Cc1cc(Cl)n2c(nc3ccccc32)c1C#N | 1-Chloro-3-methylpyrido[1,2-a]benzimidazole-4-carbonitrile | 211 | OCHEM |
| O=Cc1csc(-c2ccc(F)cc2)n1 | 2-(4-Fluorophenyl)-1,3-thiazole-4-carbaldehyde | 100 | OCHEM |
| O=C1C=C(O)CC(c2ccccc2)C1 (stereo unspecified) | 3-hydroxy-5-phenylcyclohex-2-en-1-one | 186.5 | OCHEM |
| Cc1nc(-c2ccccc2)ccc1C(=O)O | 2-methyl-6-phenylnicotinic acid | 191 | OCHEM |
| N=C1CCCN1Cc1[nH]c(=O)[nH]c(=O)c1Cl | n/a | 245 | PubChem |
| CNc1ncc(C(F)(F)F)cc1Cl | 3-chloro-N-methyl-5-(trifluoromethyl)pyridin-2-amine | 45 | OCHEM |
| Cc1nc(-c2ccc(F)cc2)cs1 | 4-(4-Fluorophenyl)-2-methylthiazole | 75 | OCHEM |
| COc1ccc(OCC2CO2)cc1 (stereo unspecified) | 4-Methoxyphenyl glycidyl ether | 46.5 | OCHEM |
| CCOC(=O)c1ccc(-c2ccc(C=O)o2)cc1 | Ethyl 4-(5-formyl-2-furyl)benzoate | 111 | OCHEM |
| COc1cc(C=O)c([N+](=O)[O-])cc1O | 4-hydroxy-5-methoxy-2-nitrobenzaldehyde | 208 | OCHEM |
| O=Cc1sc(N2CCCCC2)nc1Cl | 4-Chloro-2-(piperidin-1-yl)-1,3-thiazole-5-carbaldehyde | 90 | OCHEM |
| Cc1nnnn1-c1cccc(N)c1 | 3-(5-methyl-1H-tetrazol-1-yl)aniline | 122 | OCHEM |
| O=C(O)CN1C(=O)CCC1=O | N-Succinylglycine | 92 | OCHEM |
| Cc1[nH]c2ccccc2c1-c1csc(N)n1 | 4-(2-Methyl-1H-indol-3-yl)-thiazol-2-ylamine | 169 | OCHEM |
| C/C=C(/C)C(=O)O[C@@H]1CC(C)(C)C[C@H]2C3=CC[C@@H]4[C@@]5(C)CCC(=O)C(C)(C)[C@@H]5CC[C@@]4(C)[C@]3(C)CC[C@@]12C(=O)O | n/a | 297 | PubChem |
| Cc1ccc(Cl)c(OC(C)C(=O)O)c1 (stereo unspecified) | 2-(2-chloro-5-methylphenoxy)propanoic acid | 138 | OCHEM |
| CC(C)(C)c1cc2c(O)c(c1)Cc1cc(C(C)(C)C)cc(c1O)Cc1cc(C(C)(C)C)cc(c1O)Cc1cc(C(C)(C)C)cc(c1O)C2 | n/a | 341.5 | OCHEM |
| Nc1cccc(-c2csc(N)n2)c1 | 4-(3-Amino-phenyl)-thiazol-2-ylamine | 175 | OCHEM |
| CCCCOc1cc(C(=O)NCCN(CC)CC)c2ccccc2n1 | Dibucaine | 100 | PubChem |
| O=C(O)c1cc(-c2ccc(Cl)cc2)nc2ccccc12 | 2-(4-chlorophenyl)quinoline-4-carboxylic acid | 245 | OCHEM |
| COc1ccc(-n2c(=S)[nH]c3sc4c(c3c2=O)CCCC4)cc1 | n/a | 313 | OCHEM |

Extract of 3 entries:

{"smiles": "CNc1ncc(C(F)(F)F)cc1Cl", "name": "3-chloro-N-methyl-5-(trifluoromethyl)pyridin-2-amine", "melting point (°C)": "45", "via": "OCHEM"}
{"smiles": "COc1ccc(-c2nn(-c3ccccc3)cc2C(=O)O)cc1", "name": "3-(4-Methoxyphenyl)-1-phenyl-1H-pyrazole-4-carboxylic acid", "melting point (°C)": "245", "via": "OCHEM"}
{"smiles": "O=C1C=C(O)CC(c2ccccc2)C1", "stereo": "stereo unspecified", "name": "3-hydroxy-5-phenylcyclohex-2-en-1-one", "melting point (°C)": "186.5", "via": "OCHEM"}

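The OPERA project collected these measurements from public sources as training and test data for property models. The files give a single number for a compound and property, which may rest on several reports. How each value was measured is not recorded, so precision varies. Where a salt, mixture or single isomer is drawn, the source does not say that exactly this form was tested. Some upstream entries may be estimates or bounds without being marked so.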